Test results as given in patent US9783488B2 (CHDI Foundation, Inc., priority 2013, dated 2017).

Protein sequences, listed by entry. Tags and fused reporters are not part of them. Residues count along the entry.
UniProt P56524, 648-1032: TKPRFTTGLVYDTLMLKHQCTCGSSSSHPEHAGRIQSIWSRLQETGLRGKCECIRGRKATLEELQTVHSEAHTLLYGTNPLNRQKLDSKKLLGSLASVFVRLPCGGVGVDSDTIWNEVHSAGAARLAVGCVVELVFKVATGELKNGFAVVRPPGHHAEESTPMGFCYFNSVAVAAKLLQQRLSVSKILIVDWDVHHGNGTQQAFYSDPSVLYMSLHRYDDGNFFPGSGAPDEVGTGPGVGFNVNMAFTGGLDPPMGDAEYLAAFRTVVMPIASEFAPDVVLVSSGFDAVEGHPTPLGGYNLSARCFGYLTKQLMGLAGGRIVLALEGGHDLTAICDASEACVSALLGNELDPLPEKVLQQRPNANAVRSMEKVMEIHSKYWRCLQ

Target: human catalytic domain HDAC4 protein (amino acids 648-1032) (Homo sapiens (Human), UniProt P56524)
Test: Inhibition of HDAC4 catalytic domain enzymatic activity, fluorogenic substrate Boc-Lys(Tfa)-AMC
Settings: HDAC4 catalytic domain enzyme, read-out: Biochemical HDAC4 IC50
Source text: Analysis of Inhibition of HDAC4 with Class IIa Histone Deacetylase (HDAC) Inhibitors
The potency of Class IIa Histone Deacetylase (HDAC) inhibitors is quantified by measuring the Histone Deacetylase 4 (HDAC4) catalytic domain enzymatic activity using the fluorogenic substrate, Boc-Lys(Tfa)-AMC. The substrate is deacetylated to Boc-Lys-AMC by HDAC4. Cleavage by trypsin results in the release of the fluorophore AMC from the deacetylated substrate. The fluorescence of the sample is directly related to the histone deacetylase activity in the sample.
Serially dilute HDAC inhibitor compounds. […] Stocks of 6 μl aliquots of the 10 mM compound in DMSO are prepared and stored at […]. From one stock aliquot of each compound to be tested and the reference compound, a 16-point serial dilution is prepared according to Table 1 using a 125 μl 16-channel Matrix multi-channel pipette (Matrix Technologies Ltd).
2 μl (200×) of each diluted solution and each control (full activity: 100% DMSO alone or full inhibition 1 mM) is stamped into V-bottomed polypropylene 384-well compound plates using either the Bravo (384-well head from Agilent) or 12.5 μl 16-channel Matrix multi-channel pipette (Matrix Technologies Ltd).
Prepare HDAC4 catalytic domain enzyme (0.2 μg/mL).
Prepare 5× ([…]) Boc-Lys(Tfa)-AMC Substrate. 5× (50 μM) substrate is prepared just prior to the addition to the assay. A 1 mM substrate stock is made by diluting a 100 mM Boc-Lys(Tfa)-AMC in DMSO solution 1:100 by adding it drop-wise to assay buffer (equilibrated to r.t.) while vortexing at slow speed to prevent precipitation. The 5× substrate is prepared by diluting the 1 mM substrate solution 1:20 by adding it drop-wise to assay buffer (equilibrated to r.t.) while vortexing at slow speed to prevent precipitation.
Prepare 3× (30 μM) Developer/Stop Solution.
Assay. 5 μl of each solution of 1:20 diluted compound from above is transferred to a clear bottomed, black, 384-well assay plate using the Bravo or the Janus (384-well MDT head from Perkin Elmer). Using a 16-channel Matrix multi-channel pipette, 35 μl of the working solution of HDAC4 catalytic domain enzyme (0.2 μg/mL in assay buffer) is transferred to the assay plate. […] The assay plate is then shaken for two minutes on an orbital shaker at 900 rpm (rotations per minute). Next the plate is incubated for 15 minutes at 37° C. The reaction is stopped by adding 25 μl of 3× (3 μM) developer/stop solution to the assay plates using either the Bravo, Janus or a 16-channel Matrix multi-channel pipette. Assay plates are then shaken for 5 minutes on an orbital shaker at 1200 rpm. Next, the assay plates are incubated at 37° C. for 1 hour in a tissue culture incubator.

In the case of `Cc1c(F)cccc1[C@]1(C(=O)NO)CC[C@H](N2CCCC2)C1` (relative stereo) [Example 88, (1 S,3S*)-1-(3-fluoro-2-methylphenyl)-N-hydroxy-3-(pyrrolidin-1-yl)cyclopentanecarboxamide], the IC50 is reported as > 50000 nM.
`Cc1c(F)cccc1[C@]1(C(=O)NO)CC[C@H](c2ccc3sc(C4CC4)nc3c2)C1` (relative stereo) [Example 79, (1S,3S*)-3-(2-Cyclopropylbenzo[d]thiazol-5-yl)-1-(3-fluoro-2-methylphenyl)-N-hydroxycyclopentanecarboxamide] showed an IC50 of 290 nM.
With `Cc1c(F)cccc1[C@]1(C(=O)NO)CC[C@@H](c2ccc3c(c2)CN(C2CC2)C3=O)C1` (relative stereo) [Example 59, (1S,3R*)-3-(2-cyclopropyl-1-oxoisoindolin-5-yl)-1-(3-fluoro-2-methylphenyl)-N-hydroxycyclopentanecarboxamide] the IC50 was 140 nM.
Work on `Cc1c(F)cccc1[C@]1(C(=O)NO)CC[C@@H](c2ccc3sc(C4CC4)nc3c2)C1` (relative stereo) [Example 80, (1 S,3R*)-3-(2-Cyclopropylbenzo[c]thiazol-5-yl)-1-(3-fluoro-2-methylphenyl)-N-hydroxycyclopentanecarboxamide] yielded an IC50 of 330 nM.
Work on `Cc1c(F)cccc1[C@]1(C(=O)NO)CC[C@@H](c2cnn(CCN3CCOCC3)c2)C1` (relative stereo) [Example 47, (1S,3R*)-1-(3-fluoro-2-methylphenyl)-N-hydroxy-3-(1-(2-morpholinoethyl)-1H-pyrazol-4-yl)cyclopentanecarboxamide] yielded an IC50 of 140 nM.
Molecule `CCCN(CCC)C[C@@H](C)NC(=O)c1ccc([C@@H]2CC[C@@](C(=O)NO)(c3cccc(F)c3C)C2)cc1` (relative stereo) [Example 52, N—((R)-1-(dipropylamino)propan-2-yl)-4-((1R*,3S)-3-(3-fluoro-2-methylphenyl)-3-(hydroxycarbamoyl)cyclopentyl)benzamide] has an IC50 of 200 nM.
`Cc1c([C@]2(C(=O)NO)CC[C@@H](c3ccc4cnn(C)c4c3)C2)ccc(F)c1F` (relative stereo) [Example 86, (1S,3R*)-1-(3,4-difluoro-2-methylphenyl)-N-hydroxy-3-(1-methyl-1H-indazol-6-yl)cyclopentanecarboxamide] showed an IC50 of 90 nM.
`CCCN(CCC)C[C@@H](C)NC(=O)c1ccc([C@H]2CC[C@@](C(=O)NO)(c3cccc(F)c3C)C2)cc1` (relative stereo) [Example 53, N—((R)-1-(dipropylamino)propan-2-yl)-4-((1S*,3S)-3-(3-fluoro-2-methylphenyl)-3-(hydroxycarbamoyl)cyclopentyl)benzamide] was tested, and the IC50 was 160 nM.
`CCN(CC)CCn1cc([C@@H]2CC[C@@](C(=O)NO)(c3cccc(F)c3C)C2)cn1` (relative stereo) [Example 51, (1S,3R*)-3-(1-(2-(diethylamino)ethyl)-1H-pyrazol-4-yl)-1-(3-fluoro-2-methylphenyl)-N-hydroxycyclopentanecarboxamide] gave an IC50 of 82 nM.
In the case of `Cc1ccccc1[C@H]1CC[C@@](C(=O)NO)(c2cccc(F)c2C)C1` (relative stereo) [Example 8, (±)-(1S*,3S*)1-(3-fluoro-2-methylphenyl)-N-hydroxy-3-(o-tolyl)cyclopentane carboxamide], the IC50 is reported as 170 nM.
